Experimental data taken from patent US9138421B2, “Platinum compounds for treating cell proliferative diseases, preparation method and use thereof” (priority 2011, dated 2015).

Conditions: in water

Substance	solubility
2-(2-diethylamine ethyl)-malonic.cis-1,4-(trans-2,3-cyclobutyl)-butanediamine platinum (II) phosphate [compound 26]	176 mg/mL
[2-(2-diethylamine ethyl)-malonato].[cis-1,2-(1,2-dihydroxymethyl)-ethyldiamine]platinum (II) phosphate [compound 23]	206 mg/mL
[2-(2-diethylamine ethyl)-malonato].[cis-1,3-(2,2-(4-oxacyclohexyl))-propyldiamine]platinum (II) phosphate [compound 28]	178 mg/mL
[2-(2-dimethylamine ethyl)-malonato].[cis-1,2-ethylenediamine] platinum (II) tosilate [compound 20]	269 mg/mL
[2-(2-dimethylamine ethyl)-malonato].[cis-trans-1,2-diaminomethylcyclobutane]platinum (II) phosphate [compound 25]	185 mg/mL
[2-(3-diethylamine propyl)-malonato].[cis-(1,2-trans-diaminocyclopentane)]platinum (II) phosphate [compound 17]	178 mg/mL
[2-(3-dimethylamine propyl)-malonato].[cis-(1,2-trans-cyclohexamethylene diamine)]platinum (II) phosphate [compound 11]	200 mg/mL
